These are literature values, as cited in patent publication US7109310B2.

Some compounds may have been tested in ways that are not shown here.

The data set has as its system fentanyl RIA. To be noted: Michiels et al (1977); cited from earlier work.

Regarding `c1ccc(CCN2CCC(Nc3ccccc3)CC2)cc1`, the cross-reaction entry is listed as “no cross-reaction was observed”.
